This test addresses BACE2 (Rattus norvegicus, UniProt Q6IE75). Kind of test: Assay for BACE inhibition by measuring cellular TMEM27 cleavage (INS-TMEM27 cells, ELISA of shed TMEM27). The following applies: read-out: BACE2 IC50; inhibition of human TMEM27 cleavage by endogenous cellular BACE2 in INS1e-derived INS-TMEM27 rat cell line; ELISA of shed TMEM27 in supernatant. The source says: Assay for […] Inhibition by Measuring Cellular TMEM27 Cleavage
This assay uses the principle of inhibition of human TMEM27 cleavage by endogenous cellular BACE2 in the Ins1e rat cell line and shedding from the cell surface into the culture medium, followed by detection in an ELISA assay. Inhibition of BACE2 prevents the cleavage and shedding in a dose-dependent manner.
The stable cell line “INS-TMEM27” represents an INS1e-derived cell line with inducible expression (using the TetOn system) of full-length hTMEM27 in a doxycycline-dependent manner. The cells were cultured throughout the experiment in RPMI1640+Glutamax (Invitrogen) Penicillin/Streptomycin, 10% Fetal bovine serum, 100 mM pyruvate, […] beta-mercatptoethanol, 100 micrograms/ml G418 and 100 microgram/ml hygromycin and were grown in adherent culture at 37° C. in a standard CO2 cell culture incubator.
INS-TMEM27 cells were seeded in 96-well plates. […]
An ELISA assay (using a pair of mouse anti-human-TMEM27 antibodies, raised against the extracellular domain of TMEM27) was used for detection of TMEM27 in the culture medium. An IC50 for BACE2 inhibition was calculated using the ELISA readout for each inhibitor concentration with standard curve-fitting software. […]
For orientation: An ELISA detects its analyte on a solid surface through an enzyme-linked reagent.

By UniProt entry, the sequences of proteins in these tests, tags left out. Residues count along the entry.
UniProt Q6IE75, 63-514 limits assumed: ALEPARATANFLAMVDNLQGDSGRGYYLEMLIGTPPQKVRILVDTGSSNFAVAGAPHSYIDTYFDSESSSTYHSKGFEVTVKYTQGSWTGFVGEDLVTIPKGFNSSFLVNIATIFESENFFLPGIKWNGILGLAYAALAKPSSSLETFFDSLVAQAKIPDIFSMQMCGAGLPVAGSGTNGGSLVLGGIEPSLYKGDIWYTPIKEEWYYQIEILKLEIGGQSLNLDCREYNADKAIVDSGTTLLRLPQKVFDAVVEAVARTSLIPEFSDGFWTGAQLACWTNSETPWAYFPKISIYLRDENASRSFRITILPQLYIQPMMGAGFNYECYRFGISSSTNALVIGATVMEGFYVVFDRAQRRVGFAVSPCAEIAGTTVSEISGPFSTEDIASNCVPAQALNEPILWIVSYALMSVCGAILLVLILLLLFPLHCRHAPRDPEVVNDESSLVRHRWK

By IC50 is commonly meant the concentration that inhibits the measured activity by half. Consider `Cc1ccc(C2CCCN2C(=O)c2cccc(C(=O)N[C@@H](Cc3ccccc3)[C@H](O)CNCc3cccc(C(F)(F)F)c3)c2)c(C)c1` (stereo partly shown), for which the IC50 came out at 0.222 µM.

The record behind these values is US20120053200A1, “BACE 2 INHIBITORS” (priority 2010, published 2012).
